## Yeast mating assay B: variants of the scFv Ab-14

The target is the same throughout: PDVDLGDISGINAS, from the HR2 region of SARS-CoV-2 spike.

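The variants were designed computationally from a first round of random CDR variants and then made and measured. Their group label is 14H_En_Gibbs (En: ensemble of fine-tuned language models; Gibbs: Gibbs sampling). In AlphaSeq, yeast of one mating type display the scFv and yeast of the other type display the target. Binding brings cells together so that they mate, and sequencing counts the barcode pairs among the diploids. Read counts were normalised to the haploid input and turned into Kd by a linear fit to BCL2-family pairs of known affinity, for each replicate. The assay was run in six technical replicates.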

Ab-14 is the parent antibody, in scFv form: VH, then the linker GGGGSGGGGSGGGGS, then VL. The light chain is unchanged in all variants.
VH: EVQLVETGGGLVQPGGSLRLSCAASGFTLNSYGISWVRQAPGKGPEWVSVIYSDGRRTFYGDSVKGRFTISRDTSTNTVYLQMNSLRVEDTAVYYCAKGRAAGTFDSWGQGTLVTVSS
VL: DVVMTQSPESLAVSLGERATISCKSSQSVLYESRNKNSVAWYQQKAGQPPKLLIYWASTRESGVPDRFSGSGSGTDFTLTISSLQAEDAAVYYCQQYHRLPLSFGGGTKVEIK

The parent's heavy chain CDRs are GFTLNSYGIS, VIYSDGRRTFYGDSVK, GRAAGTFDS; each variant's own CDRs replace them letter for letter. Numbers give log10(Kd / nM), so 0 is 1 nM and 3 is 1 µM. Smaller is tighter. Replicates are averaged; those with no signal do not enter the mean. "nd" means that the variant was in the library but no mating with the target was seen in that replicate; the authors take this as a sign of poor binding, and no number exists. The authors' rule: three or more of the six replicates give a measured affinity, fewer mean a poor binder. A sequence measured in both rounds can read differently, since the two assays cover different ranges. Of ten entries with the parent sequence, four were seen in most replicates (averages 0.34 to 2.37), three in one and three in none, so single entries are noisy. Background: pairings of all heavy chain designs with three empty control strains gave a value in 1% of cases (median 2.08, 5th percentile 0.84). Values in that range, when seen in few replicates, are hard to tell from nonspecific mating. Also given: how often the same scFv was detected with the empty control strains.

For GFGLDEYGIS, VIYADGKRASYADNVK, GFNYGVDIL, the assay gave nd, nd, nd, nd, nd, nd (controls 0 of 18).
For GFGLGEYGIS, VIYADGMRAAYVTSVK, GSEAGTFFT, the assay gave nd, nd, nd, nd, nd, nd (controls 1 of 18).
For GFDLQEYGIS, VIYADGVRYAYQNSFK, GQIAGTFNS, the assay gave 1.17, 1.22, 0.67, 0.73, 1.31, 0.56 (mean 0.94; controls 1 of 18).
For GEDLDEYGIS, VIYADGQRTAYDEAVK, GTIAGSFFH, the assay gave nd, nd, nd, nd, nd, nd (controls 0 of 18).
For GFDLLEYGIS, VIYADGQRVAYKNNVK, GKNGATFSN, the assay gave nd, nd, nd, nd, nd, nd (controls 0 of 18).
For GFDLDEQGIS, VIYADGVRCSYAQSVK, GANSGVIDV, the assay gave nd, nd, nd, nd, nd, nd (controls 2 of 18).
For GMDLNEYGIS, VIYADGQRRAYAANFK, GVNIDGFDF, the assay gave nd, nd, nd, nd, nd, nd (controls 0 of 18).
For GFDLDEYGIS, VIYADGCRVFYADTVK, GLLGKLVVV, the assay gave 0.80, 0.03, 0.05, 0.51, 1.42, 0.36 (mean 0.53; controls 0 of 18).
For GFNLDEYGIS, VIYADGVRRAVIDNVK, GLVRVDFDL, the assay gave nd, nd, nd, nd, nd, nd (controls 0 of 18).
For GFGINEYGIS, VIYADGMRSFYANSVK, GAHAGYMVW, the assay gave nd, nd, nd, nd, nd, nd (controls 1 of 18).
For GEDMQEYGIS, VIYADGLRAAYSDNFK, GHLGGTFDM, the assay gave 0.76, 0.60, 1.17, 0.34, 0.66, 1.02 (mean 0.76; controls 0 of 18).
For GMSLGEYGIS, VIYADGERVGYTNNFK, GVMAGTFDV, the assay gave nd, nd, 1.55, nd, nd, nd (controls 0 of 18).
For GFDLQEYGIS, VIYADGQRVNAVSQVK, GEQAGGFKL, the assay gave nd, nd, nd, nd, nd, nd (controls 0 of 18).
For GFEVDEYGIS, VIYADGKRSMYANKVK, GHIAGMMFV, the assay gave nd, nd, nd, nd, nd, 1.53 (controls 0 of 18).
For KFDLEAYGIS, VIYADGVRTGYVNKVK, GDTGGMFDM, the assay gave nd, nd, nd, nd, nd, nd (controls 0 of 18).
For GFGLDEYGIS, VIYADGMRSNYANSVK, GYQAGVISV, the assay gave nd, nd, nd, nd, nd, nd (controls 0 of 18).
For GFSLDEYGIS, VIYADGVRTQYHPKVK, GLQGFIFDQ, the assay gave nd, nd, 2.95, nd, nd, nd (controls 1 of 18).
For EFDLNEYGVS, VIYADGHRTFYADHVK, GQEAGIFFM, the assay gave nd, nd, nd, nd, nd, nd (controls 0 of 18).
For GFDIGEYGIS, VIYADGRRKAYSDAVK, GIDVYGKTV, the assay gave nd, nd, nd, nd, nd, nd (controls 0 of 18).
For GFDLNEYGIS, VIYADGIRSRYANKVK, GNQAGTLLI, the assay gave nd, nd, nd, nd, nd, nd (controls 0 of 18).
For GDNIDEYGIS, VIYADGHRKQYSENVK, GYNAGTLDE, the assay gave nd, nd, nd, nd, nd, nd (controls 0 of 18).
For GFDLEEYGIS, VIYADGRRKQYTDAVK, GKFLVMMTV, the assay gave nd, nd, nd, nd, nd, nd (controls 0 of 18).
For GFSLDEYGIS, VIYADGLRSKYADKVK, GELNQKGDT, the assay gave nd, nd, nd, nd, nd, nd (controls 1 of 18).
For GFDINEYGIS, VIYADGTKTAYANTVK, GKYVGVFVD, the assay gave nd, nd, nd, nd, nd, nd (controls 0 of 18).
For GQGLEEYGIS, VIYADGQRNAAADEVK, GENAGTFDI, the assay gave nd, nd, nd, nd, nd, nd (controls 0 of 18).
For GFDLNEYGIS, VIYADGSRSYYVDNVK, GVMNIMMEV, the assay gave nd, nd, nd, nd, nd, nd (controls 0 of 18).
For GMDLNEYGIS, VIYADGRRTAYINQVK, GKQRVVVSH, the assay gave nd, nd, nd, nd, nd, nd (controls 0 of 18).
For GFDVDEQGIS, VIYADGRRSQYANSVK, GAIGGMFDM, the assay gave nd, nd, nd, nd, nd, nd (controls 0 of 18).
For GFDLMEYGIS, VIYADGMRQYYANKFK, GEISDSGLI, the assay gave nd, nd, nd, nd, nd, nd (controls 0 of 18).
For GFGLDEYGIH, VIYADGMRSNYANSVK, GHQAGVIVV, the assay gave nd, nd, nd, nd, nd, nd (controls 0 of 18).
For GFDLEEYGVS, VIYADGQRFAYAQDFK, GEAAGAFAL, the assay gave 1.33, nd, nd, nd, nd, nd (controls 0 of 18).
For GFDLDEYGIS, VIYADGVRMAYTDSVK, GNWSGRDMK, the assay gave nd, nd, 2.00, nd, nd, nd (controls 0 of 18).
For GFDLNEYGIS, VIYADGHRTQYSNNVK, GGQGGIGLS, the assay gave nd, nd, nd, nd, nd, nd (controls 2 of 18).
For GFDLDEYGIS, VIYADGIRKYYVDNVK, GLLAGHTIT, the assay gave 1.14, 0.94, 0.56, 2.44, 1.31, 0.77 (mean 1.19; controls 0 of 18).

Excerpt, the first 5 entries:

For GFGLDEYGIS, VIYADGKRASYADNVK, GFNYGVDIL, the assay gave nd, nd, nd, nd, nd, nd (controls 0 of 18).
For GFGLGEYGIS, VIYADGMRAAYVTSVK, GSEAGTFFT, the assay gave nd, nd, nd, nd, nd, nd (controls 1 of 18).
For GFDLQEYGIS, VIYADGVRYAYQNSFK, GQIAGTFNS, the assay gave 1.17, 1.22, 0.67, 0.73, 1.31, 0.56 (mean 0.94; controls 1 of 18).
For GEDLDEYGIS, VIYADGQRTAYDEAVK, GTIAGSFFH, the assay gave nd, nd, nd, nd, nd, nd (controls 0 of 18).
For GFDLLEYGIS, VIYADGQRVAYKNNVK, GKNGATFSN, the assay gave nd, nd, nd, nd, nd, nd (controls 0 of 18).

Values reported by Li et al. 2023, doi:10.1038/s41467-023-39022-2 (FLAb copy).